Assay results published in BindingDB's records for 23148598.

Sequences of proteins named here, by UniProt entry; tags and fusion partners are left off. Residues count along the entry.
UniProt P22303, 32-614 limits assumed: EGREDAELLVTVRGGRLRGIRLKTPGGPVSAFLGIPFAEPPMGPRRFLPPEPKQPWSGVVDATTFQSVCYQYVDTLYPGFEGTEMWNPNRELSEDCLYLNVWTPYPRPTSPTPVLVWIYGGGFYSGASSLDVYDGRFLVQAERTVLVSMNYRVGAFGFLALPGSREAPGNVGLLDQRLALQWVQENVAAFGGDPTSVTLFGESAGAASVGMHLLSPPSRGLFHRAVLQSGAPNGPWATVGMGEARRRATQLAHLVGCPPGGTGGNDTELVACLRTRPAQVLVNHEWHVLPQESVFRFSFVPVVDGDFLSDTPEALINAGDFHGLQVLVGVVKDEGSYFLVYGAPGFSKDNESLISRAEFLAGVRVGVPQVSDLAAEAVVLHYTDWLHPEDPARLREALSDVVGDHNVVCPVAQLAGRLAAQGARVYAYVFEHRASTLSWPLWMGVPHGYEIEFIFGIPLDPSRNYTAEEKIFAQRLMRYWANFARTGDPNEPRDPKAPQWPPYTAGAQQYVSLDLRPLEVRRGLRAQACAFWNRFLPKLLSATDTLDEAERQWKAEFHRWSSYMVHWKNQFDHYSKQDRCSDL

These compounds were tested against Acetylcholinesterase (Homo sapiens, UniProt P22303) (assay: ASSAY_NAME: ChEMBL_877957 (CHEMBL2188633) DESCRIPTION: Inhibition of human AChE).

Row | Compound | IC50 [µM]
1 | COc1cc2c(cc1OC)C(c1ccccc1)N(CCCc1ccc(O)c(CN=O)n1)CC2 (stereo unspecified) | 260
2 | COc1cc2c(cc1OC)C(c1ccccc1)N(CCCc1ccnc(CN=O)c1O)CC2 (stereo unspecified) | > 200
3 | COc1cc2c(cc1OC)C(c1ccccc1)N(CCCCCc1cnc(CN=O)c(O)c1)CC2 (stereo unspecified) | > 500
4 | COc1cc2c(cc1OC)C(c1ccccc1)N(CCCCCc1ccnc(CN=O)c1O)CC2 (stereo unspecified) | 320
5 | COc1cc2c(cc1OC)C(c1ccccc1)N(CCCCCCc1ccc(O)c(CN=O)n1)CC2 (stereo unspecified) | > 400
6 | COc1cc2c(cc1OC)C(c1ccccc1)N(CCCCCCc1cc(C)nc(CN=O)c1O)CC2 (stereo unspecified) | 300
